Antibody variant affinities, Ab-95 light chain, assay 2

Source: Engelhart et al. 2022 (doi:10.1038/s41597-022-01779-4), MIT Lincoln Laboratory and A-Alpha Bio; data file from the FLAb repository.

Target peptide (SARS-CoV-2 spike, HR2 region): PDVDLGDISGINAS

Ab-95 is the parent antibody, in scFv form: VH, then three GGGGS repeats, then VL. The heavy chain is unchanged in all variants.
VH: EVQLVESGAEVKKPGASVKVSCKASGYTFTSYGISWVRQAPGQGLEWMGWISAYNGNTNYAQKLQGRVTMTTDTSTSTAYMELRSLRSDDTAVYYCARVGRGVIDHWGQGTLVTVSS
VL: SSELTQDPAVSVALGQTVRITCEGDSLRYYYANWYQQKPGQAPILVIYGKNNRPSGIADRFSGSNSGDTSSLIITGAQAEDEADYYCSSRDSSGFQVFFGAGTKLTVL

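The starting antibody came from a phage panning campaign against this peptide. In library AAYL52, one, two or three CDR residues were substituted; doubles and triples were drawn at random. The scFvs were displayed on barcoded MATa yeast, the peptide on MATalpha yeast. Pairs that bind mate more often; barcode pairs of the diploids are counted by sequencing. Read counts were normalised to the haploid input and turned into Kd by a linear fit to BCL2-family pairs of known affinity, for each replicate. Each pool was mated in three replicate cultures.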

Variants are written as CDR1, CDR2 and CDR3 of the light chain (limits as in the source). Parent: EGDSLRYYYAN, GKNNRPS, SSRDSSGFQVF.
Scale: log10 of Kd in nM, estimated from mating counts; low values are strong binders.
Where no diploid with the target was found in that replicate, the entry reads "n.d.": below detection, most likely a poor binder, though not proof of it.
Nonspecific signal, from three strains lacking the peptide, appeared in 28% of pairings of library AAYL52, centred on 3.91 (5% of these signals below 2.90); values are not corrected for it. The control count says in how many pairings with the empty strains this scFv gave a signal, with their mean in brackets.

CDR-L1	CDR-L2	CDR-L3	log10 Kd, replicates	empty controls
EGDSLRYYYAN	GKFNHPS	SSRDSSGFVVF	n.d. n.d. n.d.	3/9 (4.32)
EGDSLRYYYAN	GKNNRPS	MSRDSSQFQVF	2.74 3.17 2.93	3/9 (3.67)
NGMSLRYYYAN	GKNNRPS	SSRDSSGHQVF	3.30 3.07 2.03	5/9 (3.90)
EDDSLRYYYAN	GKNNRPS	SSRDSSTFQVF	3.66 5.47 3.91	1/9 (5.31)
EGDSLRYYYAN	MKNNQPS	SSRDSSGFQVF	n.d. 3.51 n.d.	1/9 (3.45)
EGDMLRYYYTN	GKNNRPS	SSRDSSGFQVF	n.d. n.d. n.d.	0/9
EGDSKRYYYAN	GKNNKPS	SYRDSSGFQVF	n.d. 5.35 n.d.	2/9 (3.39)
EGPSLRYEFAN	GKNNRPS	SSRDSSGFQVF	1.45 1.30 0.85	3/9 (4.26)
EGDSLRYYYAN	GKNNRPS	SSRDNYGFQVF	2.42 2.07 2.03	2/9 (3.31)
EGDSLRDYGAN	GKNNRPS	SSRDSSGFQVR	2.19 2.12 1.69	4/9 (3.89)
LGDSLRYYYAN	GKNNRPE	SSCDSSGFQVF	3.11 3.20 2.76	4/9 (4.06)
EADSLRYYYAN	GPNGRPS	SSRDSSGFQVF	4.16 n.d. n.d.	2/9 (4.65)
EGDSLRYYYAN	GKKNRPS	SSRDSTGFQVF	n.d. 3.29 3.53	3/9 (4.22)
EGDSLRYYYAN	GKNNRPS	SSRDSSGFQFF	2.00 2.38 1.60	2/9 (3.44)
EGDSLTRYYAN	GKNNRMS	SSRDSSGFQVF	3.02 3.09 2.93	3/9 (4.38)
PGDCLRYYYAN	GKNNRPA	SSRDSSGFQVF	3.19 4.01 3.13	2/9 (4.41)
EGDHLRYYYAN	DKNNRPS	SQRDSSGFQVF	3.07 3.70 3.25	2/9 (3.01)
EGDSLRWYYAN	GKNNRPS	SSRYASGFQVF	n.d. n.d. 3.39	2/9 (4.00)
EGDSLRYYDAN	GKNNRPS	SSRDSSGFQVF	0.66 0.50 -0.14	2/9 (3.76)
EGDSKWYYYAN	GKNNRPS	SSNDSSGFQVF	4.01 2.78 4.33	2/9 (3.59)
EGDSLRYYWAN	GKANPPS	SSRDSSGFQVF	2.51 2.72 3.63	3/9 (4.04)
EGDSLRAYDAN	GKNNRPS	SSRDSSGFQMF	0.52 0.89 0.09	2/9 (3.82)
EGDSLRYYWAN	GKNNRPS	SSRDHSYFQVF	3.51 5.77 n.d.	5/9 (3.96)
EGDSLRYYIAF	GKNNRPS	SSRDSSYFQVF	n.d. n.d. n.d.	2/9 (4.14)
EGDSLRYYYAN	GKNNRFS	SSRDSSGLQVF	4.09 2.95 3.99	3/9 (4.13)
EGDSLRYYYAN	GGNNRPS	SSRDSSAFQVF	2.73 3.04 2.91	3/9 (4.70)
EGDSLLYYYAN	GKNQRPS	SSRWSSGFQVF	3.42 2.72 2.74	3/9 (3.73)
EGDSLRYYYAN	FKNNRPS	SSRWSSGFQVF	n.d. 3.02 4.33	2/9 (3.55)
EGDSLRYYYAN	YKVNRPS	SRRDSSGFQVF	5.29 3.90 n.d.	2/9 (4.24)
EGVSLRYYYCN	GKTNRPS	SSRDSSGFQVF	3.85 3.91 3.38	3/9 (4.40)
EGDSMRYLYAN	GKNNRPS	SSRDSSGWQVF	3.12 3.79 2.98	5/9 (4.16)
EGDSLRYYGAN	GKNNRPS	SSRDSSGFQVF	1.96 1.95 1.62	4/9 (4.11)
RGDSLRYYYAN	GKNNRPS	SSKDSSGFQVY	2.32 2.10 1.83	2/9 (3.99)
EGDSLRYYYAN	GKNNRPS	SSYDSSNIQVF	2.85 2.66 2.60	1/9 (3.36)
EGDSLRYYYAC	GTCNRPS	SSRDSSGFQVF	4.17 n.d. n.d.	2/9 (4.15)
EGDSLRYYYRN	GKNNRPS	SSRDSSGFQVF	3.96 2.84 3.65	2/9 (3.92)
EGDSLRYYYAN	GKNNRPS	SKRDSSGFQVF	3.45 3.56 3.88	2/9 (3.25)
ESDSLRYYYAN	GKNNRPS	GSRDSSGFQVL	n.d. n.d. 2.27	0/9

2 of these entries, quoted again:

| CDR-L1 | CDR-L2 | CDR-L3 | log10 Kd, replicates | empty controls |
|---|---|---|---|---|
| EGDSLRDYGAN | GKNNRPS | SSRDSSGFQVR | 2.19 2.12 1.69 | 4/9 (3.89) |
| EGDSLRYYYAN | YKVNRPS | SRRDSSGFQVF | 5.29 3.90 n.d. | 2/9 (4.24) |

In this assay the parent's reference entry averaged 2.31; its copy inside this library read 2.25.